Results: ChEMBL document CHEMBL2331215, “Discovery of novel N-substituted oxindoles as selective m1 and m4 muscarinic acetylcholine receptors partial agonists” (ACS Med Chem Lett, 2013)

Test system: Nucleic Acid
Test: Ratio of drug level in brain to blood in Sprague-Dawley rats at 1 mg/kg, sc after 1 hr by LC/MS/MS analysis
Settings: rat, strain Sprague-Dawley

**Q.** Which Ratio does the source give for `CCOC(=O)N1[C@@H]2CC[C@H]1C[C@H](CN1CC[C@H](N3C(=O)Cc4ccccc43)C1)C2` here?
**A.** 2
